Measurements from ChEMBL document CHEMBL1142492 (J Med Chem, 2008).

The chains behind the UniProt entries cited, without tags or fusion partners. Where a name states a change or a piece, a line headed by the entry shows the natural chain unless it says otherwise.
UniProt P31749: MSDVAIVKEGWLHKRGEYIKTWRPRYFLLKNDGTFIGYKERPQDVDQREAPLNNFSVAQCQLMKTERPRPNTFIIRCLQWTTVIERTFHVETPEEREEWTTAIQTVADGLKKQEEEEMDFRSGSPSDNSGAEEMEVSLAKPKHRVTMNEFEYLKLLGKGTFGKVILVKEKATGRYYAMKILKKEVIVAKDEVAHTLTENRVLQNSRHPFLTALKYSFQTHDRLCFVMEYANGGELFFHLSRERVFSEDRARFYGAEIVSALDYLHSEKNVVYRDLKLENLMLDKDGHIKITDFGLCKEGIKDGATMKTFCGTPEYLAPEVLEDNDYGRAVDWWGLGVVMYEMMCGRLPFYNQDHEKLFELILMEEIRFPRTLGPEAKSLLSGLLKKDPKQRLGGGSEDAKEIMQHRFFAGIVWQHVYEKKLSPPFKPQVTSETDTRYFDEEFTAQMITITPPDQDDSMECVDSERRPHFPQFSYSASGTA
UniProt O75116: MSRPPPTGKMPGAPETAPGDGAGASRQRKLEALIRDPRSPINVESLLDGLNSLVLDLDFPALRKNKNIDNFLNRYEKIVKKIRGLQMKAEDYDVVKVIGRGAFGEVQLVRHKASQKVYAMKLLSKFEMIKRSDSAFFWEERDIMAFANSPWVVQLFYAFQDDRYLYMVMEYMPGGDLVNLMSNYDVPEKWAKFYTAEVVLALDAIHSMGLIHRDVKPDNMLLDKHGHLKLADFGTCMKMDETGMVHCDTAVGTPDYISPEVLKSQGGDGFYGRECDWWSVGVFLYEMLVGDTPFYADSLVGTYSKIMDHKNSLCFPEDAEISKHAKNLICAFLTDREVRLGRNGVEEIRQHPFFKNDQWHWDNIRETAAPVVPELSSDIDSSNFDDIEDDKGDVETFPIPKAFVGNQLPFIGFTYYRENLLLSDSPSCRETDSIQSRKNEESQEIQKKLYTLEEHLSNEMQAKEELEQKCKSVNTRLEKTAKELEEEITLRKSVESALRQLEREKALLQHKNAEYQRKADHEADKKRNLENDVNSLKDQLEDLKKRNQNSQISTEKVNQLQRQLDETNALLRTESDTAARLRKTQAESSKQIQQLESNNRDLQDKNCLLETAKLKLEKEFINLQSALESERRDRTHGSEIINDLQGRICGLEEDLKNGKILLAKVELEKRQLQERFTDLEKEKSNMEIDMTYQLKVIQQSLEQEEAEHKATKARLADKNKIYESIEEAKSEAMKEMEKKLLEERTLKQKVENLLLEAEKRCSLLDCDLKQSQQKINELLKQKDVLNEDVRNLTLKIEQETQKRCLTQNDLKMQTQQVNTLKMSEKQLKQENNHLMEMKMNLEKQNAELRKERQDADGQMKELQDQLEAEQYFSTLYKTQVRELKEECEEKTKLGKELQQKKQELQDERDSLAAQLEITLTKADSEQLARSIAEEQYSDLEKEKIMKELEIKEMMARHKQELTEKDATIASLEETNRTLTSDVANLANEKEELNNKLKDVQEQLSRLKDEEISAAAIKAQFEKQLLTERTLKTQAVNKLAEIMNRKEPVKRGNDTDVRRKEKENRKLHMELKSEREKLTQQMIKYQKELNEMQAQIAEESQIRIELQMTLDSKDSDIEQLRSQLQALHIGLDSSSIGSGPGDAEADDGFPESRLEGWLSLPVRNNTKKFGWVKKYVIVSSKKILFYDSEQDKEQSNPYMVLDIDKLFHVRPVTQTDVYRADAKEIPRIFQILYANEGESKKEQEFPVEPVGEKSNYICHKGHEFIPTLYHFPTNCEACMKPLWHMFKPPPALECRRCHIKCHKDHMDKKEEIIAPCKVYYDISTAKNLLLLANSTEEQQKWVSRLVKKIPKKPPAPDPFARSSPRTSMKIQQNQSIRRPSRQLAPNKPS

Columns and labels:
[1] = molecular target: RAC-alpha serine/threonine-protein kinase (Homo sapiens, UniProt P31749); assay: Inhibition of AKT1 after 55 mins
[2] = molecular target: Rho-associated protein kinase 2 (Homo sapiens, UniProt O75116); assay: Inhibition of ROCK2

In the case of `O=C(Nc1ccc(-c2ccncc2)cc1)C1COc2ccccc2O1` (configuration not stated), the IC50 [1] is reported as 6.44 µM and the IC50 [2] is reported as 0.046 µM.
